# Ab-95 light chain CDR variants: yeast mating affinities

Values reported by Engelhart et al. 2022, doi:10.1038/s41597-022-01779-4 (FLAb copy).

The target is the same throughout: PDVDLGDISGINAS, from the HR2 region of SARS-CoV-2 spike.

Parent scFv Ab-95: VH joined to VL by a (GGGGS)3 linker. Changes lie in the light chain CDRs alone.
VH: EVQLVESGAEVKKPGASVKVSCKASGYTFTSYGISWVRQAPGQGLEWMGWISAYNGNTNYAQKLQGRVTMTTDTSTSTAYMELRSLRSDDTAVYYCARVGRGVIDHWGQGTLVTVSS
VL: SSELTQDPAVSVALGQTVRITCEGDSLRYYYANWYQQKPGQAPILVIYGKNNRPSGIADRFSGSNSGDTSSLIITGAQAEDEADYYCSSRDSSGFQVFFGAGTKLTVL

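Phage display of a naive human antibody library on the peptide gave the parent. The library (AAYL52) carries one to three amino acid substitutions per variant, with no insertions or deletions. AlphaSeq pools MATa yeast showing the antibodies with MATalpha yeast showing the peptide. Mating (16 h, 30 °C) was followed by selection of diploids and sequencing of their barcodes. Scores were corrected for input abundance and mapped to Kd with protein pairs of known affinity run in the same pool. The assay was run in three technical replicates.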

Changes read parent residue, position, new residue, counted from the first residue of the VL shown. Values are log10 of the apparent Kd in nM; lower means stronger binding. Replicates are averaged; those with no signal do not enter the mean. An entry "n.d." has no value in the source: the pair was not observed among the diploids in that replicate. This suggests poor binding but is not conclusive. Background: pairings of library AAYL52 with three empty control strains gave a value in 28% of cases (median 3.91, 5th percentile 2.90). Values in that range, when seen in few replicates, are hard to tell from nonspecific mating. Also given: how often the same scFv was detected with the empty control strains, with their mean in brackets. Parent in this assay: reference entry 2.31, copy in this library 2.25.

changes,"replicates, log10 nM",mean log10 Kd (nM),signal with controls
E23I+L27E+Y31W,1.79 / 1.78 / 1.73,1.77,2 of 9 (4.58)
D91F,2.59 / 2.26 / 1.59,2.15,2 of 9 (3.92)
L27F+Y29K+V97F,n.d. / n.d. / 4.22,4.22,2 of 9 (3.80)
E23H+G24I+R53P,n.d. / 4.95 / n.d.,4.95,5 of 9 (4.62)
Y29E+N33I+R53C,n.d. / n.d. / 5.00,5.00,5 of 9 (4.00)
K50W+N52S+P54S,3.54 / 3.86 / n.d.,3.70,7 of 9 (3.50)
P54F+S89T+F98G,4.28 / 4.41 / n.d.,4.34,3 of 9 (3.74)
N33P+S55R+G94P,n.d. / 5.73 / n.d.,5.73,4 of 9 (3.80)
G49P+K50Q+S55T,3.61 / n.d. / n.d.,3.61,1 of 9 (2.31)
Y30I+Y31S+F98E,2.91 / 3.90 / 2.79,3.20,5 of 9 (4.20)
G24S+L27V+R53D,n.d. / n.d. / n.d.,n.d.,0 of 9
L27I+Y30M+F95E,3.31 / 3.23 / 3.02,3.19,2 of 9 (3.09)
E23C+N52A+S89C,2.06 / 2.24 / 1.75,2.02,5 of 9 (4.05)
L27H+S92T+G94T,5.05 / n.d. / n.d.,5.05,1 of 9 (3.21)
N51W+R53T+R90F,5.55 / n.d. / n.d.,5.55,1 of 9 (3.95)
D91Q,2.82 / 3.17 / 2.46,2.82,4 of 9 (3.83)
G49P+D91R+F95W,5.16 / 5.28 / n.d.,5.22,3 of 9 (3.58)
R90H+S93T+Q96D,4.18 / 5.17 / n.d.,4.67,4 of 9 (4.01)
Y29V+G49Q+V97T,3.78 / 3.85 / 4.58,4.07,5 of 9 (4.15)
L27M+R28L+Y31T,2.83 / 2.86 / 2.37,2.69,1 of 9 (5.75)
N52G+G94H+Q96W,3.20 / 3.37 / n.d.,3.29,5 of 9 (4.10)
N33C+G49R+K50C,n.d. / n.d. / n.d.,n.d.,2 of 9 (3.66)
D25H+V97E,3.35 / 3.49 / n.d.,3.42,3 of 9 (4.73)
A32G+S88G+S89V,2.88 / 3.46 / 3.30,3.21,3 of 9 (3.59)
S55M+S93D+F98T,2.60 / 3.35 / 3.71,3.22,2 of 9 (3.78)
P54A+R90L+V97E,4.50 / 3.30 / n.d.,3.90,5 of 9 (3.52)
R28D+K50Y+F95G,n.d. / n.d. / n.d.,n.d.,0 of 9
R53C+G94P+F95H,5.91 / 6.05 / n.d.,5.98,3 of 9 (4.13)
E23T+D25V+N51A,3.73 / 3.25 / 3.00,3.33,0 of 9
E23C+Y31G+S88C,2.05 / 2.25 / 1.90,2.07,3 of 9 (4.22)
E23N+R28C+S55I,3.41 / 3.48 / 3.32,3.40,3 of 9 (4.22)
N52R,3.03 / 3.51 / 3.62,3.39,3 of 9 (4.36)
L27Y+R53G+G94M,5.05 / 5.17 / n.d.,5.11,5 of 9 (3.93)
K50A+P54V+S92T,3.14 / 3.41 / 2.94,3.16,2 of 9 (4.06)
A32K+S92W+S93T,5.23 / 5.49 / 4.30,5.01,2 of 9 (3.42)
L27Q+R28V+N52M,3.17 / n.d. / n.d.,3.17,4 of 9 (3.30)
S55I+S89P+D91H,3.53 / n.d. / 4.35,3.94,2 of 9 (4.74)
R28V+S88G,1.76 / 1.78 / 1.83,1.79,6 of 9 (3.79)
E23M+N33H+P54Y,5.34 / 4.50 / n.d.,4.92,3 of 9 (3.79)
R53Y+R90S+F98K,n.d. / 5.17 / n.d.,5.17,2 of 9 (4.33)
L27W+K50Y+P54M,n.d. / 3.32 / 3.00,3.16,0 of 9
Y29F+P54S+Q96M,4.66 / 3.92 / 2.89,3.82,5 of 9 (4.35)
G49S+R53L+R90C,n.d. / n.d. / n.d.,n.d.,2 of 9 (3.28)
S55F+D91R+S92I,4.49 / n.d. / n.d.,4.49,5 of 9 (3.87)
D25L+L27I+N33P,3.56 / 5.12 / 3.99,4.22,6 of 9 (3.28)
N52L+S92W+F98W,4.41 / 3.21 / n.d.,3.81,2 of 9 (4.25)

A selection of 5 entries from above:

changes	replicates, log10 nM	mean log10 Kd (nM)	signal with controls
L27W+K50Y+P54M	n.d. / 3.32 / 3.00	3.16	0 of 9
R53C+G94P+F95H	5.91 / 6.05 / n.d.	5.98	3 of 9 (4.13)
G49P+D91R+F95W	5.16 / 5.28 / n.d.	5.22	3 of 9 (3.58)
E23I+L27E+Y31W	1.79 / 1.78 / 1.73	1.77	2 of 9 (4.58)
E23M+N33H+P54Y	5.34 / 4.50 / n.d.	4.92	3 of 9 (3.79)